Test results as given in patent US20090105632A1 (priority 2007, published 2009).
This is a selection: effects in other tests are not listed, and their absence says nothing.

Conditions: control fentanyl HCl runs

CCC(=O)N(c1ccccc1)C1CCN(CCc2ccccc2)CC1
time up to which flux was good before falling quickly (depletion): 11 h
